The Ki is a dissociation constant, usually derived from enzyme kinetics or from competition with a known ligand. High values mean weaker binding, low ones tighter binding.

Ki data for two compounds are collected here from BindingDB's records for PubMed 3139864 (Vanderbilt University, 1988).

This assay addresses T1, 5-hydroxytryptamine receptor 2C (Rattus norvegicus, UniProt P08909).
T1 sequence (P08909 whole entry): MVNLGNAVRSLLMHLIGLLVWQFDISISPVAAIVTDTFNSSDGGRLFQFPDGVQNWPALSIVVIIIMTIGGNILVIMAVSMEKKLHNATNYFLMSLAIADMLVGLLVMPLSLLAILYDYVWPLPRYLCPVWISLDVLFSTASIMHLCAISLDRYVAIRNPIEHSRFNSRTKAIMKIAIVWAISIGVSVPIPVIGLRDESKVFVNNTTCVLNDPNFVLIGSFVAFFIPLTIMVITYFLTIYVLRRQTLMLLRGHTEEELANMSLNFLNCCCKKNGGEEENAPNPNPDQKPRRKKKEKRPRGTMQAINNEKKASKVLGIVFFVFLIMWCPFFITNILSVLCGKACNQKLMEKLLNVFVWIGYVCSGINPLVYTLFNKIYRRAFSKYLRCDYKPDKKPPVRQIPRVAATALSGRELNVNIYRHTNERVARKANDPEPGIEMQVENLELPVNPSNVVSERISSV

The compound `Cc1nc2sccn2c(=O)c1CCN1CCC(=C(c2ccc(F)cc2)c2ccc(F)cc2)CC1` returned a Ki of 0.2 nM.
Next, `CN1C[C@@H](NS(=O)(=O)N(C)C)C[C@@H]2c3cccc4c3c(cn4C)C[C@H]21` [MESULERGINE]: 1 nM.
